Measurements taken from patent US8871280B1, “Compositions and methods for treating fungal activity in plants or soil” (The United States of America, as represented by the …, priority 2011, dated 2014).

How the values were obtained:
Rhizoctonia solani = test: Greenhouse suppression of damping off of cucumber seedlings in R. solani infested soil amended with plant extract; format: in vivo, Rhizoctonia solani AG-4, isolate Rs 23A; settings: 12 seeds sown per pot, infested soil amended with 0.3% PE
cucumber seeds = settings: in vivo
Experimental: Soil treatment: For each treatment, 300 g of dry greenhouse soli (Pro-mix, Premier Horticulture LTD, Red Hill, Pa.) was thoroughly mixed with Rhizoctonia inoculum and incubated for 15 days as described above. […] The infested soil treated with only the carrier solution served as an untreated control. Following the treatment, the soil was thoroughly stirred to mix the contents and incubated in a double polythene bag closed tightly in the dark at room temperature for four days for fumigation to occur. Following the incubation, the bag was opened to allow as much PE to dissipate as possible. This was done by sprinkling the surface soil with sterile water every other day, and stirring the soil once every day for seven days. For assay of effect on seed germination and phytotoxicity of the plant extracts, soil was treated with plant extract formulations alone.
Greenhouse studies: Treated soil from each treatment was distributed to 4-inch plastic pots into which 12 seeds of cucumbers (95-100% germination) were sown and lightly watered to keep soil moist. The treatments were color coded and pots were randomized across treatment. All plants were kept in a greenhouse between 20° C. (night) to 26° C. (day) with 14 h of light. […] Total number of seedlings without any sign of damping off in each pot was recorded and percentage of disease suppression were calculated four weeks after sowing cucumber seeds.

Structure (SMILES)	Avg. seed Germination (+ PE + R. solani) (Rhizoctonia solani)	% Seed germination (+ PE only) (cucumber seeds) [%]	Avg. seed germination (+ PE only) (cucumber seeds)
C=CCN=C=S [Allyisothiocynate]	10.67	86.10	10.33
CC(C)=CCC/C(C)=C/CO [Geraniol]	9.33		
